Laboratory results taken from ChEMBL document CHEMBL4334438, “Discovery of novel glycogen synthase kinase-3α inhibitors: Structure-based virtual screening, preliminary SAR and biological evaluation for treatment of acute myeloid leukemia” (Eur J Med Chem, 2019).

Protein sequences, listed by entry. Tags and fused reporters are not part of them.
Glycogen synthase kinase-3 alpha (Homo sapiens), P49840, UniProt P49840, whole entry, looked up, stated change not applied: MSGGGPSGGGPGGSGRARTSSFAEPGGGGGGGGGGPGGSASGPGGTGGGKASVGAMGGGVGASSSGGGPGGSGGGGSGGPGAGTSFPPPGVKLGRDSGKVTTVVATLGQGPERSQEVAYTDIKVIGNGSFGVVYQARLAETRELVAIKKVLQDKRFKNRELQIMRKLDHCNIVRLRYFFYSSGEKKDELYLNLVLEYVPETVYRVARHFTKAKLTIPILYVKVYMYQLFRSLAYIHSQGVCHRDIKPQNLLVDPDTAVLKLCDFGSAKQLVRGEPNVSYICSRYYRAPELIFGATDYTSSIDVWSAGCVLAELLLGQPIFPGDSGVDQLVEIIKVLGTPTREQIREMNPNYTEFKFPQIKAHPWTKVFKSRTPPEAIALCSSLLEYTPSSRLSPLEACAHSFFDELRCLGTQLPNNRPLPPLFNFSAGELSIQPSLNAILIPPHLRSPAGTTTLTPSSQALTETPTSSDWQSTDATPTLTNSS

Tested on: Glycogen synthase kinase-3 alpha (Homo sapiens), P49840 [UNDEFINED MUTATION]
Assay: Inhibition of human GSK-3alpha S449A mutant (2 to end residues) at 10 uM using phospho GS2 peptide as substrate after 40 mins in presence of [gamma-33ATP] by scintillation counting method relative to control

Structure (SMILES): CN1C(=O)NC(=O)C2C1N=C(N1CCNCC1)N2CCCc1ccccc1 (stereo unspecified)
- inhibition: 13%
